Experimental findings from patent publication US20240116985A1, “STAPLED PEPTIDES AND METHODS THEREOF” (priority 2020, published 2024) are described below.

The chains behind the UniProt entries cited, without tags or fusion partners. Residues count along the entry.
UniProt P35222, whole entry: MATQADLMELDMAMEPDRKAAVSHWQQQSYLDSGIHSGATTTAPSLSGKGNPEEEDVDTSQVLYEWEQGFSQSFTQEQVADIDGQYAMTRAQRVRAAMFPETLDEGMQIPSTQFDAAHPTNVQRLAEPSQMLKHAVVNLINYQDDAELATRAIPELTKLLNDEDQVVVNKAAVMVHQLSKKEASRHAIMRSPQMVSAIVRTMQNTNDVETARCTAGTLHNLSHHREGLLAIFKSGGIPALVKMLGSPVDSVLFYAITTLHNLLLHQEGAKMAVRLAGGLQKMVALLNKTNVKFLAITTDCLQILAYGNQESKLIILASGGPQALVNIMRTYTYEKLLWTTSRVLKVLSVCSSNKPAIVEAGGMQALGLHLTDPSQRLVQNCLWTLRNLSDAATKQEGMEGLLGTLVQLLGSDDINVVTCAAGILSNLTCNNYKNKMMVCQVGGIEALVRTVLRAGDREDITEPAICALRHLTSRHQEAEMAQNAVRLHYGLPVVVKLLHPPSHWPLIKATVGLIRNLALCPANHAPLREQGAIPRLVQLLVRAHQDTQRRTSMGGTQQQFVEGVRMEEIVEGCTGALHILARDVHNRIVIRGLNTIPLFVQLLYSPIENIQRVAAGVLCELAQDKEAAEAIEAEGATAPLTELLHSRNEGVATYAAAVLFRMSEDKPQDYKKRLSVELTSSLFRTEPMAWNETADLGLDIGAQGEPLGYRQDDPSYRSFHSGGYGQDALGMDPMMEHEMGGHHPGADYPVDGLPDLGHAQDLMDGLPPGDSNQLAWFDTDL
UniProt P35222, 2-781 limits assumed: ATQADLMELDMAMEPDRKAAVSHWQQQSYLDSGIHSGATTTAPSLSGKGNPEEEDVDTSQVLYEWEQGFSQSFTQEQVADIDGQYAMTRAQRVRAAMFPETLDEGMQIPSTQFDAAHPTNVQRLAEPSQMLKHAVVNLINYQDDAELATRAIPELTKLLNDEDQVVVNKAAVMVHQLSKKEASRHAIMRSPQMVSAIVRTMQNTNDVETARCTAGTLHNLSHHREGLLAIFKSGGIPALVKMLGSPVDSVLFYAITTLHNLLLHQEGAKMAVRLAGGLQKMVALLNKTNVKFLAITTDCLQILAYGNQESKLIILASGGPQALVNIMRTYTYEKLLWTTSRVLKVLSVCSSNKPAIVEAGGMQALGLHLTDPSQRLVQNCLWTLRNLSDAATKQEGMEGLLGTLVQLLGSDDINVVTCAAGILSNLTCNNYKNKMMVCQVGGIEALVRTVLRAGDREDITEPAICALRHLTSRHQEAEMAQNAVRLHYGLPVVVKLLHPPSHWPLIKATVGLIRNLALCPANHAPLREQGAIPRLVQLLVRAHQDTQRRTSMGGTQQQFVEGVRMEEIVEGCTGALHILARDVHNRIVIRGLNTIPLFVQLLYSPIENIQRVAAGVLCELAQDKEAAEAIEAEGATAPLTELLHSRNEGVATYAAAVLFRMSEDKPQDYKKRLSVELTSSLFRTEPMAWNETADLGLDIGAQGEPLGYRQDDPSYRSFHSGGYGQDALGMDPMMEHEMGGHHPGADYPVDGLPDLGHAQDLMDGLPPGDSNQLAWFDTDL

For test [1], the target named is full-length beta-Catenin (Uniprot ID P35222) (Homo sapiens (Human)) (UniProt P35222). The experiment in a line: fluorescence polarization competition; full-length beta-catenin, 5FAM-TCF4(10-53) probe displaced. On the technique in general: Fluorescence polarisation rises when a labelled molecule tumbles more slowly, as on binding a larger partner.
For test [2] the target is unchanged. Nature of the test: fluorescence polarization competition; full-length beta-catenin, 5FAM-TCF4(10-53) probe as competitor.
The target is the same in test [3]. Nature of the test: fluorescence polarization competition; displacement of 5FAM-TCF4(10-53) from full-length beta-catenin.

The IC50 is the concentration that inhibits the measured activity by half. A lower IC50 goes with greater potency in that assay. The substance “Ac-PL3-Asn-Npg-B5-Asp-Asp-Ala-Ala-Phe-Asn-PyrS2-3Thi-BztA-Gln-NH2 (peptide)” showed an IC50 in test [1] of 0.011 µM. Consider “Ac-PL3-Asp-Npg-B5-Asp-3COOHF-Ala-Ala-Phe-Abu-PyrS2-2F3MeF-BztA-[NHEt]GlnR-Ala-NH2 (peptide)”, for which the IC50 in test [2] was 0.013 µM. That is a double-digit nanomolar value. “Ac-PL3-Asp-Npg-B5-Asp-3COOHF-Ala-Ala-Phe-Abu-PyrS2-2F3MeF-BztA-[Pip]GlnR-Ala-NH2 (peptide)” came in with an IC50 in test [2] of 0.028 µM.

“I-1509: Ac-PL3-Asp-Phe-B5-Asp-Asp-Ala-Ala-Phe-Leu-PyrS2-3Thi-BztA-Gln-NH2 (peptide)” returned a 50% inhibitory concentration (IC50) in test [3] of 0.011 µM. In other words, the double-digit nanomolar range. On the same count and under the same terms, in the case of “I-1520: Ac-PL3-Asp-Cha-B5-Asp-Asp-Ala-Ala-Phe-Leu-PyrS2-3Thi-BztA-Hse-NH2 (peptide)” it was 0.011 µM.
